Results published in article PMC9655968, “Synthesis of Novel Bromophenol with Diaryl Methanes—Determination of Their Inhibition Effects on Carbonic Anhydrase and Acetylcholinesterase” (Molecules, 2022).

The chains behind the UniProt entries cited, without tags or fusion partners. Where a name states a change or a piece, a line headed by the entry shows the natural chain unless it says otherwise.
UniProt P00915: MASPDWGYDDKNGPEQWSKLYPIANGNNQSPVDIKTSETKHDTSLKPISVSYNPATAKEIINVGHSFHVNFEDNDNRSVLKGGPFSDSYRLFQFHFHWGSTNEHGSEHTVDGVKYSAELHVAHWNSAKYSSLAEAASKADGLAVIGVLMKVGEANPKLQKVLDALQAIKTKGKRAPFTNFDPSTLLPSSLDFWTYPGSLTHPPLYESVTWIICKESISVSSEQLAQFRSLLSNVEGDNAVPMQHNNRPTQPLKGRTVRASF

Tests used:
[1] = target: hCA II (Homo sapiens, UniProt P00918)
[2] = target: hCA I (Homo sapiens, UniProt P00915); format: biochemical

4-Bromo-5-(2-bromo-4-hydroxybenzyl)benzene-1,2-diol [Compound 19]
IC50 ([1]; read-out: IC50 hCA II, esterase method): 27.7 nM
Ki ([1]; read-out: Ki hCA II, from Lineweaver-Burk graphs, mean ± SD): 15.1 ± 1.07 nM
IC50 ([2]; esterase method): 31.5 nM
Ki ([2]; from Lineweaver-Burk graphs, mean ± SD): 20.4 ± 2.92 nM
